Molecules are shown by their SMILES.

The assay addresses T1, ATII receptor (AGTR1, AGTR2) (Homo sapiens, UniProt P30556).
T1 construct: Consecutive cryosections of each tissue were incubated with the radioligand in the absence or presence of an excess of non-labeled ATII; from tissue; host or cells: flash-frozen cryosections of patient pancreatic and small-intestinal NEN and of control pancreas, small intestine and liver
As to the kind of experiment: in vitro receptor autoradiography of tissue cryosections. The class given is binding. Conditions: 1 µM competitor.

Take `CCCCC(=O)N(Cc1ccc(-c2ccccc2-c2nnn[nH]2)cc1)[C@H](C(=O)O)C(C)C` [valsartan]: the “displacement of 125I-ATII binding” value was “clearly displaced” (pancreatic NEN tissues #1, #4, #6, #8) and “displaced” (small-intestinal NEN tissues).

For the origin of these results see publication PMC7693775, “AGTR1 Is Overexpressed in Neuroendocrine Neoplasms, Regulates Secretion and May Potentially Serve as a Target for Molecular Imaging and Therapy” (Cancers, 2020).
